The values below are quoted from earlier work in paper PMC7547215 (Proceedings of the National Academy of Sciences of the …, 2020).

For data set [1], the system named is VEGFR and PDFGR. As to conditions: read-out: IC50, VEGFR and PDGFR in vitro; cited from earlier work.
The test system of data set [2] is VEGFR and PDFGR. As to conditions: read-out: IC50, VEGFR and PDGFR in cells; cited from earlier work.

Molecules are shown by their SMILES. Read-outs that look alike come from different tables or passages of the source.

For the compound `CCN(CC)CCNC(=O)c1c(C)[nH]c(/C=C2\C(=O)Nc3ccc(F)cc32)c1C` [sunitinib], the IC50 was 9 to 10 nM in data set [1] and 30 to 40 nM in data set [2].

What is called IC50 is the concentration at which inhibition is half-maximal.
